Apparent affinities of Ab-14 variants for a coronavirus HR2 peptide

From the AlphaSeq antibody data of Li et al. 2023 (doi:10.1038/s41467-023-39022-2), copy in the FLAb collection.

Binding partner: SARS-CoV-2 spike HR2 peptide, sequence PDVDLGDISGINAS.

Parent scFv Ab-14: VH joined to VL by a (GGGGS)3 linker. Changes lie in the light chain CDRs alone.
VH: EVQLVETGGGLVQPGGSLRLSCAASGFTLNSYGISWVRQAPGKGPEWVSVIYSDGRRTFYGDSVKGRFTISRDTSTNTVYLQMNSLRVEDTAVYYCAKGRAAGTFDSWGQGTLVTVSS
VL: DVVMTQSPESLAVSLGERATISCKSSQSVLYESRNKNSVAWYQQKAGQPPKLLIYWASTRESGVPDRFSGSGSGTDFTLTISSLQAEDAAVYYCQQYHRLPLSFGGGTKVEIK

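The parent was found by panning a naive human phage display library on the peptide. These sequences belong to a second round, designed from the earlier measurements on random variants of the parent. Their group label is 14L_Ctrl (Ctrl: baseline library sampled from a position-specific scoring matrix, with some repeated check sequences). Affinity was read by AlphaSeq, a pooled yeast mating assay with surface-displayed partners. After mating in shaken culture at 30 °C for 16 h, diploids were selected and their barcode pairs sequenced. Each replicate has its own calibration line, from reference interactions of the BCL2 family. Each pool was mated in six replicate cultures.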

The whole VL of each variant is written out. Affinities are written as log10 Kd with Kd in nM; a lower number is a better binder. Replicates are averaged; those with no signal do not enter the mean. "n.d." marks a missing value. The strain was present, yet no cells mated with the target were sequenced in that replicate, which points to weak or no binding. Nonspecific signal, from three strains lacking the peptide, appeared in 4% of pairings of all light chain designs, centred on 2.64 (5% of these signals below 1.59); values are not corrected for it. The control count says in how many pairings with the empty strains this scFv gave a signal, with their mean in brackets. The parent sequence was in this pool as ten entries: three were never detected, three once, and four in most replicates, with averages from 0.34 to 2.37. A sequence measured in both rounds can read differently, since the two assays cover different ranges. In the paper, a design with two or fewer of six values counts as a poor binder.

| # | VL | log10 Kd, replicates | log10 Kd (nM), mean | signal with controls |
|---|---|---|---|---|
| 1 | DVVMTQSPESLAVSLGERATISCKSENTVLKESRNLNSVAWYQQKAGQPPKLLIYSESTRESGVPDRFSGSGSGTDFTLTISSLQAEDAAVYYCQQYHRLPLSFGGGTKVEIK | 0.57 0.36 0.90 0.33 0.76 0.54 | 0.58 | 1 of 18 (2.23) |
| 2 | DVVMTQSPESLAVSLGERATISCKSSQSVLYESRNKNSVAWYQQKAGQPPKLLIYNASTRESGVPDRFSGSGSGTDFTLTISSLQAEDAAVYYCQIYHRLPFSFGGGTKVEIK | 0.39 0.60 0.97 0.72 0.87 0.48 | 0.67 | 1 of 18 (2.53) |
| 3 | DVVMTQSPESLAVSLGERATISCKSSQSVLYESRNKNSIAWYQQKAGQPPKLLIYWALTRECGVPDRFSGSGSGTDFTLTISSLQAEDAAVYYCQQYHRLPLSFGGGTKVEIK | n.d. n.d. n.d. n.d. n.d. n.d. | n.d. | 0 of 18 |
| 4 | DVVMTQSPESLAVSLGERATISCKSSQSHLQNSRNKNSVAWYQQKAGQPPKLLIYWASTRESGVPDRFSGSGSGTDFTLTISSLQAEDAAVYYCQQYHRLPLSFGGGTKVEIK | n.d. n.d. 1.78 2.96 1.06 1.57 | 1.84 | 0 of 18 |
| 5 | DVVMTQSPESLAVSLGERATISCKSSGSVLYESRNSNSVAWYQQKAGQPPKLLIYNASTRESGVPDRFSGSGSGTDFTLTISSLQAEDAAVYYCQQYHRLPLSFGGGTKVEIK | 0.11 0.02 0.06 -0.28 -0.06 0.05 | -0.02 | 0 of 18 |
| 6 | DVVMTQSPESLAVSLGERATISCKLSQSVLYESRNKNSVAWYQQKAGQPPKLLIYSASTREEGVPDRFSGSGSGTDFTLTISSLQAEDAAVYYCQQYHRLPLSFGGGTKVEIK | -0.13 -0.20 -0.29 -0.25 -0.48 -0.13 | -0.25 | 0 of 18 |
| 7 | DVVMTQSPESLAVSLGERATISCKSSQSVLYESRNKNSVAWYQQKAGQPPKLLIYWASTRESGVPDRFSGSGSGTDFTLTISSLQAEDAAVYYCQQYHGLPLSFGGGTKVEIK | n.d. 1.33 n.d. n.d. 2.54 n.d. | 1.93 | 0 of 18 |
| 8 | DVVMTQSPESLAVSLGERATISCKYSQSVLYEHRNKNSVAWYQQKAGQPPKLLIYWALTRESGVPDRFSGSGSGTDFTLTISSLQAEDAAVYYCQQYHRLPLSFGGGTKVEIK | n.d. 1.69 1.82 n.d. 1.89 2.56 | 1.99 | 0 of 18 |
| 9 | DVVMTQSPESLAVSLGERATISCKYSQSVLYESTNKNSVAWYQQKAGQPPKLLIYWASTRESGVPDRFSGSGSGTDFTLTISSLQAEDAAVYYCQQYHRNPLSFGGGTKVEIK | n.d. n.d. n.d. n.d. n.d. n.d. | n.d. | 0 of 18 |
| 10 | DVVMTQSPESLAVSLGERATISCQSSQSVGYEVNNKNSVAWYQQKAGQPPKLLIYWASTRESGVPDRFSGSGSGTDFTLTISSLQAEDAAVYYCQQYVRLPLSFGGGTKVEIK | 1.73 n.d. n.d. n.d. n.d. n.d. | 1.73 | 0 of 18 |
| 11 | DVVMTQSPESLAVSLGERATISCKSSQDVLYESRAKNSVAWYQQKAGQPPKLLIYWAFTRESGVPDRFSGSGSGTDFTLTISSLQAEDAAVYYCQQYNRLPLSFGGGTKVEIK | n.d. n.d. n.d. n.d. n.d. n.d. | n.d. | 1 of 18 (3.71) |
| 12 | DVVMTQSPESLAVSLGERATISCKSSQSVLYESRNHNSISWYQQKAGQPPKLLIYWASTRESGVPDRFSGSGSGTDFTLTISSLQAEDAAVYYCQQYHRLPLSFGGGTKVEIK | n.d. n.d. n.d. n.d. n.d. 2.61 | 2.61 | 0 of 18 |
| 13 | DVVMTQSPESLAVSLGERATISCKISQSVLKESRNKNSVAWYQQKAGQPPKLLIYWASTRESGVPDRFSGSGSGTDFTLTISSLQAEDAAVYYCQQYHRLPLSFGGGTKVEIK | 1.52 1.13 1.79 0.98 0.84 0.63 | 1.15 | 0 of 18 |
| 14 | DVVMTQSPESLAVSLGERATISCKSSQSVLYESGNKNSVAWYQQKAGQPPKLLIYKDSTRESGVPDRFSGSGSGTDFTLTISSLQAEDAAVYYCQQYHRLPLSFGGGTKVEIK | n.d. n.d. n.d. n.d. n.d. n.d. | n.d. | 0 of 18 |
| 15 | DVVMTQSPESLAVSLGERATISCKFSQSVEYESRNKNSVAWYQQKAGQPPKLLIYWASTRESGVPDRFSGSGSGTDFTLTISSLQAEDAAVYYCQQYHELPISFGGGTKVEIK | n.d. n.d. n.d. n.d. n.d. n.d. | n.d. | 0 of 18 |
| 16 | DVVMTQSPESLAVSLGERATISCKFNQSVLYESRNKNSVAWYQQKAGQPPKLLIYTASTRESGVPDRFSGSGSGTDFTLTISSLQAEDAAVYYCQQYHRLPLSFGGGTKVEIK | 0.44 0.70 0.73 0.40 0.63 0.77 | 0.61 | 4 of 18 (2.56) |
| 17 | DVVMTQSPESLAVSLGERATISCKSSQSVGKESRWENSVAWYQQKAGQPPKLLIYWASTRESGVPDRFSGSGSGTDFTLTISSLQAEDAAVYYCQQYHRLPLSFGGGTKVEIK | n.d. n.d. 1.53 n.d. n.d. 2.25 | 1.89 | 0 of 18 |
| 18 | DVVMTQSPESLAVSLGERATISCKSSQSVLYESRNKKSVAWYQQKAGQPPKLLIYWASTRPSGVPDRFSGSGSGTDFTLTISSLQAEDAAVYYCQQYHRLPLMFGGGTKVEIK | n.d. 4.04 n.d. n.d. n.d. n.d. | 4.04 | 1 of 18 (2.16) |
| 19 | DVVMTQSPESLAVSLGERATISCKSSQSVLYESRNFNSVAWYQQKAGQPPKLLIYSASTREPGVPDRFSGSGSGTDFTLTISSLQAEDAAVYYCQQYHRLPLSFGGGTKVEIK | 0.15 0.65 1.63 1.74 0.61 1.52 | 1.05 | 0 of 18 |
| 20 | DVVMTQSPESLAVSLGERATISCKSSQSDTYESRNQNSVAWYQQKAGQPPKLLIYMASTRESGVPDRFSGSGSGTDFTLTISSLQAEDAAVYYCQQYHRLPLSFGGGTKVEIK | 1.26 1.73 1.12 0.51 0.44 1.70 | 1.13 | 0 of 18 |
| 21 | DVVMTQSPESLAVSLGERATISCKSIQSMLYESRNKNSVAWYQQKAGQPPKLLIYWASTRESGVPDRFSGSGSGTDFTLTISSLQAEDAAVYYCQQYSRLPLSFGGGTKVEIK | n.d. 1.93 2.13 2.11 2.47 2.52 | 2.23 | 0 of 18 |
| 22 | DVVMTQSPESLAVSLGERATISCKSSQAVLYESTNQNSVAWYQQKAGQPPKLLIYWASTRESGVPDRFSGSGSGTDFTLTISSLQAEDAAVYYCQQYHRLPLSFGGGTKVEIK | 1.42 1.73 2.19 1.51 1.77 1.54 | 1.69 | 1 of 18 (2.84) |
| 23 | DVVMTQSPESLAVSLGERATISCKSSQSVGYESRNKNSVAWYQQKAGQPPKLLIYQASTRESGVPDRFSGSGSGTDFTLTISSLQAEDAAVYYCQQYHRLPLSFGGGTKVEIK | 0.81 0.33 0.09 0.64 0.92 0.68 | 0.58 | 1 of 18 (1.83) |
| 24 | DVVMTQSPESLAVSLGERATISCKSSQSVPYESRNPNSVAWYQQKAGQPPKLLIYWASTRESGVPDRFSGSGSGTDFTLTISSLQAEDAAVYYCQQYHRLPLSFGGGTKVEIK | 2.18 2.33 1.75 2.44 1.82 2.24 | 2.13 | 1 of 18 (2.49) |
| 25 | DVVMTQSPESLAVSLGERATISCKSSQSVVGESPNKNSVAWYQQKAGQPPKLLIYWASTRESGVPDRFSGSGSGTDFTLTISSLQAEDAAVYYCQQYHRWPLSFGGGTKVEIK | n.d. n.d. n.d. n.d. n.d. n.d. | n.d. | 0 of 18 |

For reference, 3 entries of the list once more:

| VL | log10 Kd, replicates | log10 Kd (nM), mean | signal with controls |
|---|---|---|---|
| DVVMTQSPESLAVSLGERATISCKSSQSHLQNSRNKNSVAWYQQKAGQPPKLLIYWASTRESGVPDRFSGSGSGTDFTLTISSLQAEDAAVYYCQQYHRLPLSFGGGTKVEIK | n.d. n.d. 1.78 2.96 1.06 1.57 | 1.84 | 0 of 18 |
| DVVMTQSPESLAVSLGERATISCKSSQSVLYESRNFNSVAWYQQKAGQPPKLLIYSASTREPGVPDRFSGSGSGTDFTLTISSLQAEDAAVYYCQQYHRLPLSFGGGTKVEIK | 0.15 0.65 1.63 1.74 0.61 1.52 | 1.05 | 0 of 18 |
| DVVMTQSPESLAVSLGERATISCKYSQSVLYESTNKNSVAWYQQKAGQPPKLLIYWASTRESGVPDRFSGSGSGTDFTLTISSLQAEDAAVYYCQQYHRNPLSFGGGTKVEIK | n.d. n.d. n.d. n.d. n.d. n.d. | n.d. | 0 of 18 |